Literature values in patent US20100035866A1, “NOVEL SUBSTITUTED-1, 1-DIOXO-BENZO[1,2,4]THIADIAZIN-3ONES, PREPARATION METHOD THEREOF, AND PHARMACEUTICAL COMPOSITION CONTAINING THE SAME” (KOREA RESEARCH INSTITUTE OF CHEMICAL TECHNOLOGY, priority 2006, published 2010).

By UniProt entry, the sequences of proteins in these tests, tags left out.
UniProt P50406, whole entry: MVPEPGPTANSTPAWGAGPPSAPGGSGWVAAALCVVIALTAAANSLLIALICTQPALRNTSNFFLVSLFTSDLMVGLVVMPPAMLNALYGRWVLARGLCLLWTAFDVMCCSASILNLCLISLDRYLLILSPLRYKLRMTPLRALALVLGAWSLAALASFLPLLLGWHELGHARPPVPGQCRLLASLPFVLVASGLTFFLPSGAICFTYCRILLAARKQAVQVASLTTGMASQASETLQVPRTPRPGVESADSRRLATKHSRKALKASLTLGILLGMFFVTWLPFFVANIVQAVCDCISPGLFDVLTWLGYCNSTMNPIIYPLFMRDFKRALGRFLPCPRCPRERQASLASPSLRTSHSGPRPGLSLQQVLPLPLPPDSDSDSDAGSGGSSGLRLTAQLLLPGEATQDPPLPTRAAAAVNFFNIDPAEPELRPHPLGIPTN

Experiments:
5-HT6 receptors = 5-HT6 receptors (Homo sapiens, UniProt P50406); conditions: read-out: Ki at 5-HT6 receptors; background art; cited from earlier work
[1] = system: other 5-HT receptors / other receptor binding sites; conditions: background art; cited from earlier work
[2] = background art; cited from earlier work

Compound: COc1ccc(NS(=O)(=O)c2ccc(Br)cc2)cc1N1CCN(C)CC1
- Ki (5-HT6 receptors): 5 nM
- affinity for 50 other receptor/binding sites [1]: no measurable affinity
- selectivity over 10 other 5-HT receptors [1]: > 50 fold
- bioavailability (in words) [2]: low bioavailability
- blood clearance (in words) [2]: rapid blood clearance
- brain penetrant [2]: 25%
